Measured affinities in a library of Ab-14 light chain variants

From the AlphaSeq antibody data of Li et al. 2023 (doi:10.1038/s41467-023-39022-2), copy in the FLAb collection.

All variants were tested on one target, the spike HR2 peptide PDVDLGDISGINAS (SARS-CoV-2).

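Designed CDR sequences, proposed from the first random library and measured here. Their group label is 14L_En_Gibbs (En: ensemble of fine-tuned language models; Gibbs: Gibbs sampling). AlphaSeq pools MATa yeast showing the antibodies with MATalpha yeast showing the peptide. Mating (16 h, 30 °C) was followed by selection of diploids and sequencing of their barcodes. Read counts were normalised to the haploid input and turned into Kd by a linear fit to BCL2-family pairs of known affinity, for each replicate. Each pool was mated in six replicate cultures.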

Ab-14 is the parent antibody, in scFv form: VH, then three GGGGS repeats, then VL. The heavy chain is unchanged in all variants.
VH: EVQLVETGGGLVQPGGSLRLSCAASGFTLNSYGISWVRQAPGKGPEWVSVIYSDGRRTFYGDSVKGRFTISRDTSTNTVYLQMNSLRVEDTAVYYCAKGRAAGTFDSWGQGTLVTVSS
VL: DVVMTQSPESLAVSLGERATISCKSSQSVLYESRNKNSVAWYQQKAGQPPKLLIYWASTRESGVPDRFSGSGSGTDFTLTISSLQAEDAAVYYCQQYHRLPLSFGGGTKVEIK

Each variant is given by its three light chain CDRs, as the data file delimits them; those of the parent are KSSQSVLYESRNKNSVA, WASTRES, QQYHRLPLS.
Scale: log10 of Kd in nM, estimated from mating counts; low values are strong binders.
Averages over replicates are reported, and they cover detected replicates only.
"nd" means that the variant was in the library but no mating with the target was seen in that replicate; the authors take this as a sign of poor binding, and no number exists.
Values of this round are not directly comparable with the first-round values of the same sequences.

CDR-L1 | CDR-L2 | CDR-L3 | replicates, log10 nM | log10 Kd (nM), mean | signal with controls
KFAGGLDYNTAHKSAIA | HADIRNV | QQYFRLPLD | 1.79 / 1.17 / 0.95 / 1.23 / 1.35 / 1.20 | 1.28 | 1 of 18 (2.39)
KIQWYQLEMRDPGSAVA | EASVRYN | QQYWRLPLE | 0.53 / 1.25 / 1.42 / 0.55 / 1.27 / 1.13 | 1.03 | 1 of 18 (2.30)
RFPEHLLMLESKIYNIA | NATKTME | QQYFRLPFV | 0.18 / 0.08 / 0.19 / 0.24 / 0.01 / 0.19 | 0.15 | 2 of 18 (3.06)
DLTGMFNHAGQQQHSIA | NGGIKIE | QQYNRLPLA | 0.00 / -0.28 / -0.26 / -0.30 / -0.24 / -0.11 | -0.20 | 3 of 18 (3.45)
QLSMLEQNGGRSYSSVA | DDDVRMA | QQYHRLPLS | 1.17 / 0.88 / 1.37 / 0.50 / 0.72 / 1.06 | 0.95 | 0 of 18
NLNTGYEGGFLNTDNIA | HGNMVEA | QQYYRLPLS | 0.04 / -0.17 / -0.20 / -0.09 / 0.07 / 0.08 | -0.04 | 1 of 18 (2.83)
HVSGLYTDESVREYNIA | ETSHVEE | QQYERLPLI | 0.58 / 0.54 / 0.51 / 0.56 / 0.51 / 0.86 | 0.59 | 0 of 18
VLSATIENQYDEADNIA | DKTETSK | QQYARLPLS | 1.87 / 1.67 / 1.17 / 1.59 / 1.24 / 1.50 | 1.51 | 0 of 18
KLYEAGEESSKVDRSIA | EMSTRQE | QQYQRLPLS | 1.50 / 1.29 / 1.26 / 1.29 / 1.44 / 1.54 | 1.39 | 0 of 18
KMKQSIEGNPKNWNSVA | DVDSTIE | QQYARLPLF | 0.44 / 0.18 / 0.07 / 0.06 / 0.12 / 0.70 | 0.26 | 2 of 18 (2.34)
TLLYGPTEARKDKHNIA | DMSEREE | QQYHLLPLI | 1.32 / 0.92 / 0.84 / 0.65 / 0.89 / 1.80 | 1.07 | 0 of 18
FFSLIQGSYGEANNSIA | ERNTRAP | QQYGRLPLV | 1.29 / 1.29 / 1.14 / 1.09 / 0.88 / 1.70 | 1.23 | 0 of 18
KIQNFSQEYNKMWNNIA | DMTMKHT | QQYNRLPLV | -0.03 / 0.04 / -0.33 / 0.06 / -0.36 / 0.12 | -0.09 | 0 of 18
MLPESTPQQISNKNPVA | GAQHTAV | QQYDRLPLT | -0.09 / 0.08 / 0.33 / 0.17 / 0.65 / -0.37 | 0.13 | 0 of 18
NLGQKMSLETEQRNSIA | DSTVRED | QQYSRIPLI | 0.92 / 0.27 / 0.42 / 0.47 / 0.15 / 0.66 | 0.48 | 0 of 18
KIYQVGLGSQKIMRNIA | ETSTRCT | QSYQRLPLS | 1.18 / 0.95 / 1.35 / 1.00 / 1.04 / 0.75 | 1.04 | 1 of 18 (3.26)
KLNDGFQQYEQNNSSVA | DAINSEQ | QQYARLPLL | 0.94 / 0.95 / 1.11 / 1.29 / 1.55 / 1.28 | 1.18 | 0 of 18
KFFGGIPEQERDDYSIA | MGTLRET | QQYQRLPLS | 1.33 / 1.21 / 1.03 / nd / 1.18 / 1.19 | 1.19 | 0 of 18
SLFFHDDQKQEESNNIA | HASLRAV | QQYMHLPLV | 1.12 / 0.41 / 1.17 / 0.54 / 0.67 / 0.60 | 0.75 | 2 of 18 (2.28)
SLMDNPWVEDHYRKAIA | DINVRAD | QQYHRLPLS | 0.08 / 0.24 / 0.01 / 0.03 / -0.02 / 0.75 | 0.18 | 2 of 18 (2.98)
RIADMMNRDGYRQQAVA | EDSVRWD | QQYAQLPLA | 1.99 / 2.73 / 2.49 / 3.46 / 2.27 / nd | 2.59 | 3 of 18 (2.44)
NVSIEEPGNWRMWDSVA | HSSLRAE | QQYWRLPLM | 0.58 / 0.66 / 0.40 / 0.56 / 0.47 / 0.57 | 0.54 | 2 of 18 (2.57)
KLSLGLGVQKQVEYNIA | NERLKTA | QHYDRLPLT | 0.62 / 0.65 / 0.69 / 0.42 / 0.31 / 0.31 | 0.50 | 1 of 18 (3.02)
KIEISNSVSLRGTRAIA | QASTRAH | QQYHRLPLT | 1.39 / 1.30 / 1.50 / 1.22 / 1.31 / 1.75 | 1.41 | 1 of 18 (3.53)
MLEWLEIGGQSVGNSIA | ANVQEQE | QQYFRLPLT | nd / nd / nd / nd / nd / nd | nd | 0 of 18
NLFGHDFESKQMGNAIA | DMTTVMA | QQYFMLPLH | 0.94 / 0.91 / 0.86 / 0.70 / 0.65 / 1.09 | 0.86 | 3 of 18 (3.25)
QVSITNMQGHAMEHNIA | EGTYAEE | QQYARLPLQ | 0.84 / 0.91 / 0.42 / 0.55 / 0.24 / 0.88 | 0.64 | 0 of 18
QTTAFYQHGHDQNQAMA | DVTMRDQ | QQYERLPLS | 0.76 / 0.48 / 1.21 / 0.09 / 0.60 / 0.11 | 0.54 | 1 of 18 (2.24)
KMMNSLGAFKQSEDNVA | NVEQKVA | QQYDHLPLT | 0.05 / 0.08 / 0.01 / -0.01 / 0.09 / 0.42 | 0.11 | 1 of 18 (4.27)
RIRESMGYSHEGRRNIA | QADIREI | QQYSQLPLF | 0.42 / 0.27 / 0.57 / 0.27 / 0.26 / 0.03 | 0.30 | 1 of 18 (2.64)
KIERATKGDEYFQYSIA | KGDIREK | QQYAQLPLT | 1.36 / 1.29 / 1.53 / 0.93 / 1.38 / 1.41 | 1.32 | 2 of 18 (2.99)
KIAEQIMHVYIGANAIA | DATVRSA | QQYLRLPLM | 1.67 / nd / 1.88 / 2.16 / 1.68 / 1.21 | 1.72 | 0 of 18
QLAVDRLQEYEMGDAIA | GKTLRED | QQYARLPLS | 0.84 / 1.04 / 0.84 / 0.72 / 0.37 / 0.55 | 0.73 | 0 of 18
KIRVNHLMFSQNESNIA | GMSVRSR | QQYYHLPLT | 1.94 / 1.40 / 1.15 / 1.16 / 1.47 / 1.99 | 1.52 | 1 of 18 (2.37)
ALTAHRQVAIETKNSIA | NAVMRYQ | QQYAQLPLM | 0.77 / 0.17 / 0.42 / 0.11 / 0.65 / 0.66 | 0.46 | 0 of 18
NITQQGNAMGDQRNNVA | NVETLQH | QQYAHLPLL | 0.52 / 0.80 / 0.41 / 0.47 / 0.79 / 0.81 | 0.63 | 0 of 18
YMSMYLDMQQNIQCGVA | DATTRND | QQYQRLPLS | 0.83 / 1.87 / 1.47 / 1.68 / 1.20 / 0.78 | 1.31 | 0 of 18
HFSQHTMEEMSSNKAVA | EVTTTMT | QQYARLPFI | 1.43 / 1.33 / 0.56 / 1.84 / 1.41 / 1.29 | 1.31 | 0 of 18
NLSIEMSHYYENRYSIA | DMTVREY | QHYSRIPLV | 0.86 / 0.82 / 0.72 / 0.52 / 0.51 / 0.80 | 0.71 | 1 of 18 (2.68)
NYENISEPMGRYDQNIA | NVSLREH | QQYFMLPLS | 1.12 / 0.95 / 1.22 / 0.96 / 1.00 / 1.19 | 1.08 | 2 of 18 (2.93)
QLSVFELQGMSWMQSIA | QADHRTE | QQFSRLPLV | 0.77 / 0.39 / 0.52 / 0.27 / 0.45 / 0.87 | 0.55 | 1 of 18 (3.49)
SLYENYANGGQHTNAVA | DANQMMR | QHYNRLPLA | 0.38 / 0.35 / -0.15 / -0.18 / 0.34 / -0.54 | 0.03 | 0 of 18
NISYEQALSTNSVNNVA | QASVRAP | QYYQRLPLV | 0.05 / 0.00 / -0.03 / -0.03 / 0.07 / 0.20 | 0.04 | 1 of 18 (3.72)
RFSQTEQMGIRDYNSVA | NGSTVNT | QHYSRLPIS | 0.92 / 0.88 / 0.86 / 0.65 / 1.10 / 1.36 | 0.96 | 2 of 18 (2.38)
KIQWYPLEFRGTIQAVA | EAATRYN | QQYMRLPLM | nd / nd / nd / nd / nd / nd | nd | 0 of 18
QLTENDRGHQAGGGSIA | DATETME | QQYMHLPLY | 0.36 / 0.36 / 0.04 / 0.01 / 0.21 / 0.38 | 0.23 | 2 of 18 (3.84)
RFQQWSLESNNTEKSIA | SASHREQ | QQYARLPLF | 0.81 / 0.91 / 0.63 / 0.73 / 0.81 / 0.79 | 0.78 | 0 of 18

The 5 strongest on average among those seen in every replicate, once more:

CDR-L1 | CDR-L2 | CDR-L3 | replicates, log10 nM | log10 Kd (nM), mean | signal with controls
DLTGMFNHAGQQQHSIA | NGGIKIE | QQYNRLPLA | 0.00 / -0.28 / -0.26 / -0.30 / -0.24 / -0.11 | -0.20 | 3 of 18 (3.45)
KIQNFSQEYNKMWNNIA | DMTMKHT | QQYNRLPLV | -0.03 / 0.04 / -0.33 / 0.06 / -0.36 / 0.12 | -0.09 | 0 of 18
NLNTGYEGGFLNTDNIA | HGNMVEA | QQYYRLPLS | 0.04 / -0.17 / -0.20 / -0.09 / 0.07 / 0.08 | -0.04 | 1 of 18 (2.83)
SLYENYANGGQHTNAVA | DANQMMR | QHYNRLPLA | 0.38 / 0.35 / -0.15 / -0.18 / 0.34 / -0.54 | 0.03 | 0 of 18
NISYEQALSTNSVNNVA | QASVRAP | QYYQRLPLV | 0.05 / 0.00 / -0.03 / -0.03 / 0.07 / 0.20 | 0.04 | 1 of 18 (3.72)

Three control strains display no target. For all light chain designs, 4% of the pairings with them gave a signal, with a median of 2.64 and one signal in twenty below 1.59, so weak values seen in few replicates may be background. Also given: how often the same scFv was detected with the empty control strains, with their mean in brackets.
The authors' rule: three or more of the six replicates give a measured affinity, fewer mean a poor binder.
Of ten entries with the parent sequence, four were seen in most replicates (averages 0.34 to 2.37), three in one and three in none, so single entries are noisy.